## Apparent affinities of Ab-14 variants for a coronavirus HR2 peptide

Binding partner: SARS-CoV-2 spike HR2 peptide, sequence PDVDLGDISGINAS.

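The parent was found by panning a naive human phage display library on the peptide. This is the validation round: designs drawn from the data on random variants, tested in the same kind of assay. Several design methods are mixed in this list. The assay is AlphaSeq: two haploid yeast populations carry antibody and antigen on their surface. Pairs that bind mate more often; barcode pairs of the diploids are counted by sequencing. A regression on co-assayed BCL2-family reference pairs converts the normalised counts of each replicate to an apparent Kd. Mating was done six times.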

The variants keep the heavy chain, the linker and the frameworks of Ab-14 (scFv order VH, the linker GGGGSGGGGSGGGGS, VL).
VH: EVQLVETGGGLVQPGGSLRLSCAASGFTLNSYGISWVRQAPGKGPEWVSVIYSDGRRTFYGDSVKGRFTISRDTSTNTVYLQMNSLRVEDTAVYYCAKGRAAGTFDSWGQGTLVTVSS
VL: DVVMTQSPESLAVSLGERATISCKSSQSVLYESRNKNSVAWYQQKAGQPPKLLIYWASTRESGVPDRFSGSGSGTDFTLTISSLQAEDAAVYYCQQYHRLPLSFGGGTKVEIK

Variants are written as CDR1, CDR2 and CDR3 of the light chain (limits as in the source). Parent: KSSQSVLYESRNKNSVA, WASTRES, QQYHRLPLS.
Variants here have more than six changes.
The Kd shown is the geometric mean over detected replicates; a lower Kd is a better binder.

* QLGHYKHENMAKWQNVA, NMTIREK, QQYAHLPLA -> 15 nM (6 of 6 replicates)
* TISQVMNTMTRHGNNVA, DLQEREE, QQYFRLPLS -> 9.5 nM (6 of 6 replicates)
* TLYGLSVSMSKNTNSVA, EMTTREK, QQYDRLPLV -> 15 nM (6 of 6 replicates)
* HMSMLTLQGMRHRNSVA, QMTTREN, QQYDHLPLS -> 75 nM (5 of 6 replicates)
* KLRQVTGYESYNKNSVA, QMSTRAS, QDYHRLPLS -> 4.9 nM (6 of 6 replicates)
* MMSQVTMSGMRHRNNVA, QTSTREP, QQYDRLPLV -> 7.0 nM (6 of 6 replicates)
* HITYGMYVSGRYKSNIA, QAETRAK, QQYDRLPLM -> 3.7 nM (6 of 6 replicates)
* MFSQGVMVGWLTRNSVA, NSSTREN, QQYHRLPLS -> 5.0 nM (6 of 6 replicates)
* KIQHQHVGNWKTANNIA, QGDQRGS, QSYDRLPLS -> 42 nM (6 of 6 replicates)
* NITGMVEEIGTTTKNIA, EGEFRCG, QQYSRLPLS -> 8.2 nM (6 of 6 replicates)
* KIQQSVYYEDLNKNSVA, HASTRCD, QQYHRLPLS -> 2.1 nM (6 of 6 replicates)
* MISQVMNMLTKEGNNVA, DLQEREN, QQYFRLPLS -> 140 nM (6 of 6 replicates)
* KFSMMSNSMQVSKSAVA, EMSTRPE, QQYNRLPLA -> 3.7 nM (6 of 6 replicates)
* HFSVETMEFMGQNKAIA, EVTTTML, QQYARLPFI -> 4.9 nM (6 of 6 replicates)
* KLSMMDLYESRMSNSVA, MASTREV, QQYHRLPLS -> 2.1 nM (6 of 6 replicates)
* MISQVLNTLTKEGNNVA, DLAERER, QQYFRLPLS -> 74 nM (6 of 6 replicates)
* KLGAATRFESSNKASIA, NNSTREE, QQYHRLPLS -> 3.7 nM (6 of 6 replicates)
* NFPQEVMYESHFKNNVA, QTSTREQ, QQYDHLPLS -> 1.4 nM (6 of 6 replicates)
* QLATEVTQNAKEGHAIA, EHELKAD, QQYFHLPLS -> 1.0 nM (6 of 6 replicates)
* HMSMLTLGGMRHKNSVA, QMTTREN, QQYDRLPLA -> 14 nM (6 of 6 replicates)
* KLGMTAEMELKNRNSVA, ELVTREN, QQYNRLPLS -> 3.0 nM (6 of 6 replicates)
* KISMLINQTFEESNNVA, EMVTREK, QQYNRLPLS -> 62 nM (6 of 6 replicates)
* KFSQMANQFSVSMNAVA, EMSTREE, QQYNRLPLA -> 1.0 nM (6 of 6 replicates)
* KYSQQNLYEQRNFNNVA, NASYRES, QQYHRLPLS -> 7.8 nM (6 of 6 replicates)
* KSAYSEGYESANKNSVA, SASTRSS, QQYHRLPLS -> 1.3 nM (6 of 6 replicates)
* ALSQSSDMTSRNKNSVA, DLSTREN, QQYHRLPLS -> 300 pM (6 of 6 replicates)
* KISGYLNKESKNKYNVA, EMVNRES, QQYDRLPLS -> 2.8 nM (6 of 6 replicates)
* QISLNGWDGEPYEYAVA, EGTIADA, QQYSRLPLS -> 160 nM (5 of 6 replicates)
* KLYQSVMLESRNVNSVA, SASQREL, QQYHRLPLS -> 850 pM (6 of 6 replicates)
* KLVQFMNRGTHHTSNIA, DAVNRID, QQYYRLPLA -> 4.3 nM (6 of 6 replicates)

Extract of 5 entries:

CDR-L1	CDR-L2	CDR-L3	apparent Kd	replicates with signal
MISQVLNTLTKEGNNVA	DLAERER	QQYFRLPLS	74 nM	6/6
HMSMLTLGGMRHKNSVA	QMTTREN	QQYDRLPLA	14 nM	6/6
KISMLINQTFEESNNVA	EMVTREK	QQYNRLPLS	62 nM	6/6
TISQVMNTMTRHGNNVA	DLQEREE	QQYFRLPLS	9.5 nM	6/6
TLYGLSVSMSKNTNSVA	EMTTREK	QQYDRLPLV	15 nM	6/6

Values of this round are not directly comparable with the first-round values of the same sequences.
In the paper, a design with two or fewer of six values counts as a poor binder.
Nonspecific signal, from three strains lacking the peptide, appeared in 4% of pairings of all light chain designs, centred on 430 nM (5% of these signals below 38 nM); values are not corrected for it.
Of ten entries with the parent sequence, four were seen in most replicates (averages 2.2 nM to 240 nM), three in one and three in none, so single entries are noisy.

From the AlphaSeq antibody data of Li et al. 2023 (doi:10.1038/s41467-023-39022-2), copy in the FLAb collection.